Values of other authors in paper PMC11938273 (Journal of Chemical Information and Modeling, 2025).

Conditions: in vivo; cited from earlier work

For `C[C@]12C=CC(=O)C=C1CC[C@H]1[C@@H]3C[C@@H](O)[C@](O)(C(=O)CO)[C@@]3(C)C[C@H](O)[C@@]12F` [Triamcinolone, (11β,16α)-9-Fluoro-11,16,17,21-tetrahydroxypregna-1,4-diene-3,20-dione], the CNS status is listed as “Efflux transporter substrate”.
